# PubChem BioAssay AID488899 (Broad Institute, 2010)
# Only a part is listed here, and it is no random draw. Calls of active or inactive are those of the source.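 Rule for the calls: active = mean inhibition across replicates of 60% or more, whatever share of single replicates reaches that level; inconclusive = some that reach 60%, reason not given; inactive = mean inhibition across replicates below 60%.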
# Test: MITF transcriptional activity suppression – cell-based, SK-MEL-5, single point, luciferase, primary screen (AID 488899)
# Details: SK-MEL-5 TRPM1 promoter luciferase, 24 h; at 12.5 µM; hits give high values
row,Structure (SMILES),inhibition
1,O=C(NCC1(N2CCCCC2)CCCCC1)c1ccc(F)cc1,inactive: -0.0175%
2,O=P1(N(CCCl)CCCl)SCCCS1,inactive: 4.59%
3,CCCCOc1ccc(C(=O)NCC2(N3CCOCC3)CCCCC2)cc1,inactive: -3.7%
4,COc1ccc(NC2CCN(CCc3ccccc3)CC2)c(OC)c1,inactive: 3.26%
5,CCOC(=O)N1CCC(Nc2ccc(F)cc2)CC1,inactive: 1.74%
6,CCOc1ccc(C)cc1CN(CCCl)CCCl,inactive: 11%
7,O=C1CCN(Cc2ccccc2)CC1,inactive: -2.58%
8,COc1cc(C(=O)NCC2(N(C)C)CCCCC2)ccc1OC(F)F,inactive: -24.4%
9,CCOC(=O)N1CCC(Nc2cccc(C)c2)CC1,inactive: -6.09%
10,CSc1ccccc1C(=O)NCC1(N2CCCCC2)CCCCC1,inactive: -1.35%
11,Cc1cccc(NC2(C#N)CCN(Cc3ccccc3)CC2)c1,inactive: 1.86%
12,O=C(NCC1(N2CCCCC2)CCCCC1)c1ccc(=O)[nH]c1,inactive: -9.78%
13,O=C(NCC1(N2CCCCC2)CCCCC1)c1cccs1,inactive: -7.34%
14,COc1ccc(C(=O)NCC2(N3CCCCC3)CCCCC2)cc1,inactive: -11.8%
15,CC(C)(C)OC(=O)N1CCC(N(C(=O)c2ccccc2)c2ccc(F)cc2)CC1,inactive: 10%
16,COc1ccc(C(=O)NCC2(N3CCCCC3)CCCCC2)c(OC)c1OC,inactive: 16.7%
17,CCOC(=O)N1CCC(Nc2ccc(OC)cc2)CC1,inactive: 11.5%
18,O=C(OC1CN2CCC1CC2)C1c2ccccc2Oc2ccccc21 (stereo not drawn),inactive: 0.855%
19,O=C(NCC1(N2CCCCC2)CCCCC1)c1ccc(Cl)s1,inactive: -5.16%
20,N#CC1(Nc2ccccc2)CCN(Cc2ccccc2)CC1,inactive: -3.38%
21,COc1ccc(Cl)cc1C(=O)NCC1(N2CCOCC2)CCCCC1,inactive: 4.89%
22,O=C(NCC1(N2CCOCC2)CCCCC1)c1cc2ccccc2o1,inactive: 5.42%
23,O=C(NCC1(N2CCCCC2)CCCCC1)c1ccc(Cl)nc1,inactive: -10.6%
24,Cc1cc(C)cc(N(C(=O)c2ccccc2)C2CCN(C(=O)OC(C)(C)C)CC2)c1,inactive: 22.4%
25,COc1cc(OC)c(C(=O)NCC2(N(C)C)CCCCC2)cc1OC,inactive: 5.31%

row,Structure (SMILES),inhibition
1,O=C(NCC1(N2CCOCC2)CCCCC1)c1cc(F)c(F)cc1Cl,inactive: -0.24%
2,COc1ccc(CN(CCCl)CCCl)cc1Cl,inactive: 8.28%
3,CN(C)c1cccc(C(=O)NCC2(N3CCCCC3)CCCCC2)c1,inactive: -3.69%
4,CC(C)c1ccc(NC2CCN(C(=O)OC(C)(C)C)CC2)cc1,inactive: -47.5%
5,CCCOc1ccc(C(=O)NCC2(N(C)C)CCCCC2)cc1OC,inactive: 4.73%
6,O=C(NCC1(N2CCCCC2)CCCCC1)c1cncc(Br)c1,inactive: -6.07%
7,CN1CCC(Nc2cccc(F)c2)CC1,inactive: -9.69%
8,O=C(NCC1(N2CCCCC2)CCCCC1)c1cccc([N+](=O)[O-])c1,inactive: 4.58%
9,CSc1ccc(C(=O)NCC2(N3CCOCC3)CCCCC2)cc1,inactive: -9.68%
10,CCN1CCC(Nc2ccc(Cl)cc2)CC1,inactive: -1.41%
11,N#CC1(Nc2ccccc2)CCN(CCc2ccccc2)CC1,inactive: 1.51%
12,O=C(NCC1(N2CCCCC2)CCCCC1)c1ccc(OC(F)F)cc1,inactive: -17%
13,CN1CCN(CCOC(=O)C(O)(c2ccccc2)c2ccccc2)CC1,inactive: -0.816%
14,CC(C)c1ccc(C(=O)NCC2(N3CCOCC3)CCCCC2)cc1,inactive: -37.7%
15,COc1ccc(NC2CCN(C(=O)OC(C)(C)C)CC2)cc1,inactive: 8.23%
16,COc1cc(C(=O)NCC2(N3CCCCC3)CCCCC2)ccc1OC(F)F,inactive: -4.92%
17,O=C(NCC1(N2CCOCC2)CCCCC1)c1cc(=O)[nH]c2ccccc12,inactive: 5.24%
18,O=C(NCC1(N2CCCCC2)CCCCC1)c1cccc(C(F)(F)F)c1,inactive: -2.44%
19,CC(C)(C)OC(=O)N1CCC(N(C(=O)c2ccccc2)c2ccc(Cl)cc2)CC1,inactive: -0.319%
20,N#Cc1ccc(C(=O)NCC2(N3CCCCC3)CCCCC2)cc1,inactive: 1.66%
21,c1ccc(CN2CCC(Nc3ccccc3)CC2)cc1,inactive: 2.99%
22,Cc1cc(N(CCCl)CCCl)ccc1C=O,inactive: 2.14%
23,CCCN1CCC(Nc2cc(OC)cc(OC)c2)CC1,inactive: 3.98%
24,CN(C)C1(CNC(=O)c2cccc(C#N)c2)CCCCC1,inactive: 1.14%
25,COc1ccc(C(=O)NCC2(N3CCOCC3)CCCCC2)cc1OC,inactive: -13.6%

row,Structure (SMILES),inhibition
1,O=C(NCC1(N2CCOCC2)CCCCC1)c1cc(Br)ccc1Cl,inactive: -2.37%
2,COc1cc(C(=O)NCC2(N3CCOCC3)CCCCC2)cc(OC)c1C,inactive: -7.49%
3,O=C(OC1CN2CCC1CC2)C1c2ccccc2C=Cc2ccccc21 (stereo not drawn),inactive: 0.619%
4,N/C(=N\O)c1c(N)no[n+]1[O-],inactive: 7.29%
5,CCOC(=O)N1CCC(Nc2ccc(C)cc2)CC1,inactive: 4.21%
6,CCCOc1ccc(C(=O)NCC2(N(C)C)CCCCC2)cc1,inactive: 9.59%
7,CC(C)(C)OC(=O)N1CCC(Nc2ccccc2)CC1,inactive: -6.69%
8,O=C(O)C1(Nc2ccccc2)CCN(Cc2ccccc2)CC1,inactive: 5.54%
9,CCOc1ncccc1C(=O)NCC1(N2CCOCC2)CCCCC1,inactive: 5.52%
10,CN1CCC(Nc2ccc(F)c(Cl)c2)CC1,inactive: 6.09%
11,CN1CCC(Nc2ccc(Cl)cc2)CC1,inactive: -13.5%
12,CCC(CO)(C(=O)OC1CN2CCC1CC2)c1ccccc1 (stereo not drawn),inactive: -1.1%
13,COc1cc(OC)cc(C(=O)NCC2(N3CCOCC3)CCCCC2)c1,inactive: 0.072%
14,COc1cccc(C(=O)N(c2cc(C)cc(C)c2)C2CCN(C(=O)OC(C)(C)C)CC2)c1,inactive: -1.17%
15,Cc1ccc(NC2(C#N)CCN(Cc3ccccc3)CC2)cc1,inactive: -1.51%
16,Cc1ccc(C(=O)NCC2(N3CCCCC3)CCCCC2)o1,inactive: -0.456%
17,Fc1ccccc1NC1CCN(Cc2ccccc2)CC1,inactive: -4.42%
18,CC(=O)N(c1ccccc1)C1CCNCC1,inactive: 2.58%
19,O=C(NCC1(N2CCCCC2)CCCCC1)c1ccco1,inactive: -7.42%
20,Cn1c(=O)[nH]cc(N(CCCl)CCCl)c1=O,inactive: 13.7%
21,CN(C)c1ccc(C(=O)NCC2(N3CCCCC3)CCCCC2)cc1,inactive: -11.8%
22,Cc1ccccc1NC1(C#N)CCN(Cc2ccccc2)CC1,inactive: -11.2%
23,CCN1CCC(Nc2cccc(F)c2)CC1,inactive: 4.29%
